The structures appear in SMILES notation.

Amino acid sequences for entries named in this document (tags omitted).
UniProt O43613, whole entry: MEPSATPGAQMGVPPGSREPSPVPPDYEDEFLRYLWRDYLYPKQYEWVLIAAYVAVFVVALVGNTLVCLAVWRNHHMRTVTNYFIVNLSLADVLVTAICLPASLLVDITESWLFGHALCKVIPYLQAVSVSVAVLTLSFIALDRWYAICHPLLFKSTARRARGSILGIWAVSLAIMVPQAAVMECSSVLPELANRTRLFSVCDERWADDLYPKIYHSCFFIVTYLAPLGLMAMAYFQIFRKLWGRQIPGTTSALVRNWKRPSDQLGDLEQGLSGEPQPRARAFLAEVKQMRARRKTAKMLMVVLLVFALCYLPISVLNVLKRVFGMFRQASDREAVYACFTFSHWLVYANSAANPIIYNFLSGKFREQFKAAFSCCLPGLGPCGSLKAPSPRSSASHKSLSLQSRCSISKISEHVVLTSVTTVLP

The target in this assay is Orexin/Hypocretin receptor type 1 (Homo sapiens, UniProt O43613). As to the kind of experiment: The intrinsic orexin receptor antagonist activity of a compound which may be used in the present invention may be determined by these assays.
Regarding `COc1ccc(C(=O)N2C[C@H](Oc3nccc(C#N)c3C)CC[C@H]2C)c(C2CC2)n1`, the affinity corresponds to a Ki of 1890 nM. In the case of `COc1ccc(C(=O)N2C[C@H](Oc3nccc(C#N)c3C)CC[C@H]2C)c(-c2ccncc2)n1`, the affinity, expressed as Ki, was 5760 nM. As for `COc1ccc(C(=O)N2C[C@H](Oc3nccc(C#N)c3C)CC[C@H]2C)c(-n2nccn2)c1`, the figure is 1170 nM; as for `Cc1c(C#N)ccnc1O[C@@H]1CC[C@@H](C)N(C(=O)c2ccccc2OC(F)(F)F)C1`, 757 nM; as for `Cc1c(C#N)ccnc1O[C@@H]1CC[C@@H](C)N(C(=O)c2ccncc2-c2ccccc2)C1`, 1610 nM. Under `CSc1ccc(C(=O)N2C[C@H](Oc3nccc(C#N)c3C)CC[C@H]2C)c(-n2nccn2)n1` stands 1450 nM. As for `Cc1c(C#N)ccnc1O[C@@H]1CC[C@@H](C)N(C(=O)C2=C(c3ccccn3)CCC2)C1`, affinity was put at a Ki of 165 nM. On to `COc1ccc(C(=O)N2C[C@H](Oc3nccc(C#N)c3C)CC[C@H]2C)c(C2CCC2)n1`, for which the Ki amounted to 911 nM. In turn, `Cc1c(C#N)ccnc1O[C@@H]1CC[C@@H](C)N(C(=O)c2cccc(F)c2-n2nccn2)C1` came in with a Ki of 269 nM.

With `COc1c(C#N)ccnc1O[C@@H]1CC[C@@H](C)N(C(=O)c2ccc(F)cc2-n2nccn2)C1`, affinity was put at a Ki of 442 nM. For `Cc1c(C#N)ccnc1O[C@@H]1CC[C@@H](C)N(C(=O)c2ccccc2-c2cscn2)C1`, the Ki came to 150 nM. In turn, `Cc1c(C#N)ccnc1O[C@@H]1CC[C@@H](C)N(C(=O)c2sncc2-c2ccccc2)C1` displayed a Ki of 1480 nM. The molecule `Cc1c(C#N)ccnc1O[C@@H]1CC[C@@H](C)N(C(=O)c2nscc2-c2ccccc2)C1` gave a Ki of 357 nM.

The molecule `Cc1c(C#N)ccnc1O[C@@H]1CC[C@@H](C)N(C(=O)c2c(F)cccc2-c2nccs2)C1` displayed a Ki of 72 nM. On to `Cc1c(C#N)ccnc1O[C@@H]1CC[C@@H](C)N(C(=O)c2ccccc2OC(C)C)C1`, for which the affinity corresponds to a Ki of 605 nM. In turn, `Cc1c(C#N)ccnc1O[C@@H]1CC[C@@H](C)N(C(=O)c2nscc2-n2nccn2)C1` registered a Ki of 4300 nM. Turning to `Cc1c(C#N)ccnc1O[C@@H]1CC[C@@H](C)N(C(=O)c2ccccc2-c2ncco2)C1`, the affinity, expressed as Ki, was 182 nM. In the case of `CCc1c(C#N)ccnc1O[C@@H]1CC[C@@H](C)N(C(=O)c2ccccc2-n2nccn2)C1`, the Ki was determined as 58 nM. For the molecule `Cc1c(C#N)ccnc1O[C@@H]1CC[C@@H](C)N(C(=O)c2ccc(Cl)cc2-n2nccn2)C1`, the inhibition constant Ki was 144 nM. `Cc1c(C#N)ccnc1O[C@@H]1CC[C@@H](C)N(C(=O)c2cc(F)ccc2-n2nccn2)C1` yielded a Ki of 296 nM. With `Cc1c(C#N)ccnc1O[C@@H]1CC[C@@H](C)N(C(=O)c2ccccc2-c2nccs2)C1`, the affinity, expressed as Ki, was 64 nM.

Broadly, the Ki is a measure of affinity in units of concentration, obtained from inhibition or displacement. A low value points to higher affinity.

For the origin of these results see ChEMBL document CHEMBL5725216, “2-pyridyloxy-3-substituted-4-nitrile orexin receptor antagonists” (2017).
